Test results from US9296734B2 (AMGEN INC., priority 2013, dated 2016).
Where two headings read alike, the source gives them in different places.

Sequences of proteins named here, by UniProt entry; tags and fusion partners are left off. Residues count along the entry.
UniProt P56817, 46-501: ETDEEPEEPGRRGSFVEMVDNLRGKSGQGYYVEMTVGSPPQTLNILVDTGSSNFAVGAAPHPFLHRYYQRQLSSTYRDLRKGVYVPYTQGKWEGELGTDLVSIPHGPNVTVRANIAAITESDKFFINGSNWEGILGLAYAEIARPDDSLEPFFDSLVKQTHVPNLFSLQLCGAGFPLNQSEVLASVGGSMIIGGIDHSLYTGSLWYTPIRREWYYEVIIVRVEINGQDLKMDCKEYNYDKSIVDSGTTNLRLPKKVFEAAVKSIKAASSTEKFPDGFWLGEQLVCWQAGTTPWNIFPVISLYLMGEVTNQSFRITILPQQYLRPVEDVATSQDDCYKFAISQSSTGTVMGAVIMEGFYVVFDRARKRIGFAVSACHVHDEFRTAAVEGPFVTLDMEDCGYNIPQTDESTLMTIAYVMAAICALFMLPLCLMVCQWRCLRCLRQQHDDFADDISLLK

Legend:
[1] = tested on: Aβ40 in conditioned medium of cells stably expressing Amyloid Precursor Protein (APP); test: In vitro BACE cell-based assay (Aβ40 sandwich ELISA); conditions: Homo sapiens, read-out: HEK cell assay IC50
Protocol: In Vitro BACE Cell-Based Assay
The cell-based assay measures inhibition or reduction of Aβ40 in conditioned medium of test compound treated cells expressing amyloid precursor protein.
Cells stably expressing Amyloid Precursor Protein (APP) were plated at a density of 40K cells/well in 96 well plates (Costar). The cells were cultivated for 24 hours at 37° C. and 5% CO2 in DMEM supplemented with 10% FBS. The test compounds were then added to cells in 10-point dose response concentrations with the starting concentration being either 100 μM or 10 μM. The compounds were diluted from stock solutions in DMSO and the final DMSO concentration of the test compounds on cells was 0.1%. After 24 h of incubation with the test compounds the supernatant conditioned media was collected and the Aβ 40 levels were determined using a sandwich ELISA. The IC50 of the compound was calculated from the percent of control or percent inhibition of Aβ 40 as a function of the concentration of the test compound.
The sandwich ELISA to detect Aβ 40 was performed in 96 well microtiter plates, which were pre-treated with goat anti-rabbit IgG (Pierce). The capture and detecting antibody pair that were used to detect Aβ 40 from cell supernatants were affinity purified pAb40 (Biosource) and biotinylated 6E10 (Signet Labs Inc.), respectively. The optimal concentration for the pAb40 antibody was 3 μg/ml in Superblock/TBS (Pierce) that was supplemented with 0.05% Tween 20 (Sigma).
Cellular supernatants were incubated with the capture antibody for 3 h at 4° C., followed by 3 wash steps in TBS-tween (0.05%). The detecting antibody incubation was for 2 h at 4° C., again followed by the wash steps as described previously. The final readout of the ELISA is Time-Resolved Fluorescence (counts per minute) using Delfia reagents Streptavidin-Europium and Enhancement solutions (Perkin Elmer) and the Victor 2 multilabel counter (Perkin Elmer).

[2] = biological target: Beta Secretase enzyme (BACE) (Homo sapiens (Human), UniProt P56817); test: In vitro enzymatic BACE FRET assay; type: biochemical; conditions: read-out: BACE 1 FRET assay IC50
Protocol: In Vitro Enzymatic BACE FRET (Fluorescence Resonance Energy Transfer) Assay (Enzyme Assay Data in the Example Table I)
The assay buffer used in this screen is 0.05 M acetate, pH 4.2, 10% DMSO final, 100 uM genapol (which is a nonionic detergent, below its Critical Micelle Concentration). […] This assay is effectively started by the addition of FRET substrate (50 nM) and the combination is incubated for one hour. The FRET assay is terminated with by addition of Tris buffer, which raises the pH to neutrality, and the fluorescence is determined. The FRET substrate is a peptide with commercially available fluorophore and quencher, on opposite sides of the BACE cleavage site.

[3] = HEK293, average IC50, HEK cell assay
[4] = average IC50, BACE enzyme assay

IC50 ([1]; HEK293, HEK cells, average) | IC50 ([2]; average) | IC50 [1, 3] | IC50 [2, 4] | SMILES | other results
2460 nM | 2960 nM |  |  | NC1=N[C@](CF)(c2cc(C#Cc3ccc(OC(F)F)cn3)ccc2F)C[C@@H](C(F)(F)F)O1 [Example 127, (4S,6S)-4-(5-((5-(difluoromethoxy)pyridin-2-yl)ethynyl)-2-fluorophenyl)-4-(fluoromethyl)-6-(trifluoromethyl)-5,6-dihydro-4H-1,3-oxazin-2-amine] | 
 |  |  |  | COc1ccc(C(=O)Nc2cccc([C@]3(CF)C[C@@H](C(F)(F)F)OC(N)=N3)c2)nc1 [Example 145, N-(3-((4S,6S)-2-amino-4-(fluoromethyl)-6-(trifluoromethyl)-5,6-dihydro-4H-1,3-oxazin-4-yl)phenyl)-5-methoxypicolinamide] | IC50 ([1]; HEK293, average IC50, HEK cells): 55 nM; IC50 ([2]; average IC50): 334 nM
 |  | 81 nM | 19 nM | NC1=N[C@](CF)(c2cc(NC(=O)c3ccc(Br)cn3)cc(F)c2F)C[C@@H](C(F)(F)F)O1 [Example 157, N-(3-((4S,6S)-2-amino-4-(fluoromethyl)-6-(trifluoromethyl)-5,6-dihydro-4H-1,3-oxazin-4-yl)-4,5-difluorophenyl)-5-bromopicolinamide] | 
 |  | 379 nM | 21 nM | NC1=N[C@](CF)(c2cc(NC(=O)c3ccc(C#CC4CC4)cn3)cc(F)c2F)C[C@@H](C(F)(F)F)O1 [Example 158, N-(3-((4S,6S)-2-amino-4-(fluoromethyl)-6-(trifluoromethyl)-5,6-dihydro-4H-1,3-oxazin-4-yl)-4,5-difluorophenyl)-5-(cyclopropylethynyl)picolinamide] | 
 |  | 21 nM | 3.5 nM | CC#CCOc1ccc(C(=O)Nc2cc(F)c(F)c([C@]3(CF)C[C@@H](C(F)(F)F)OC(N)=N3)c2)nc1 [Example 160, N-(3-((4S,6S)-2-amino-4-(fluoromethyl)-6-(trifluoromethyl)-5,6-dihydro-4H-1,3-oxazin-4-yl)-4,5-difluorophenyl)-5-(but-2-yn-1-yloxy)picolinamide] | 
 |  | 271 nM | 37 nM | N#Cc1cnc2c(Nc3cc(F)c(F)c([C@]4(CF)C[C@@H](C(F)(F)F)OC(N)=N4)c3)nccc2c1 [Example 162, 8-((3-((4S,6S)-2-amino-4-(fluoromethyl)-6-(trifluoromethyl)-5,6-dihydro-4H-1,3-oxazin-4-yl)-4,5-difluorophenyl)amino)-1,7-naphthyridine-3-carbonitrile] | 
 |  | 5.7 nM | 30 nM | C[C@@]1(c2cc(NC(=O)c3ncc(C#N)cc3Cl)cc(F)c2F)C[C@@H](C(F)(F)F)OC(N)=N1 [Example 167, N-(3-((4S,6S)-2-amino-4-methyl-6-(trifluoromethyl)-5,6-dihydro-4H-1,3-oxazin-4-yl)-4,5-difluorophenyl)-3-chloro-5-cyanopicolinamide] | 
26 nM | 29 nM |  |  | Cc1cc(OC(F)F)cnc1C(=O)Nc1cc(F)c(F)c([C@]2(C)C[C@@H](C(F)(F)F)OC(N)=N2)c1 [Example 174, N-(3-((4S,6S)-2-amino-4-methyl-6-(trifluoromethyl)-5,6-dihydro-4H-1,3-oxazin-4-yl)-4,5-difluorophenyl)-5-(difluoromethoxy)-3-methylpicolinamide] | 
 |  | 240 nM | 62 nM | COc1cnc2c(Nc3cc(F)c(F)c([C@]4(C)C[C@@H](C(F)(F)F)OC(N)=N4)c3)nccc2n1 [Example 178, (4S,6S)-4-(2,3-difluoro-5-((2-methoxypyrido[3,4-b]pyrazin-5-yl)amino)phenyl)-4-methyl-6-(trifluoromethyl)-5,6-dihydro-4H-1,3-oxazin-2-amine] | 
 |  | 224 nM | 178 nM | COc1cnc2c(Nc3cc(F)c(F)c([C@]4(C)C[C@@H](C(F)(F)F)OC(N)=N4)c3)nccc2c1 [Example 179] | 
12 nM | 6 nM |  |  | CC#CCOc1cnc(C(=O)Nc2cc(F)c(F)c([C@]3(C)C[C@@H](C(F)(F)F)OC(N)=N3)c2)c(C)c1 [Example 188, N-(3-((4S,6S)-2-amino-4-methyl-6-(trifluoromethyl)-5,6-dihydro-4H-1,3-oxazin-4-yl)-4,5-difluorophenyl)-5-(but-2-yn-1-yloxy)-3-methylpicolinamide] | 
213 nM | 156 nM |  |  | Cc1cc(OCC(F)(F)F)cnc1C(=O)Nc1cc(F)c(F)c([C@]2(C)C[C@@H](C(F)(F)F)OC(N)=N2)c1 [Example 194, N-(3-((4S,6S)-2-amino-4-methyl-6-(trifluoromethyl)-5,6-dihydro-4H-1,3-oxazin-4-yl)-4,5-difluorophenyl)-3-methyl-5-(2,2,2-trifluoroethoxy)picolinamide] | 
49 nM | 27 nM |  |  | Cc1nc(OCC(F)(F)F)cnc1C(=O)Nc1cc(F)c(F)c([C@]2(C)C[C@@H](C(F)(F)F)OC(N)=N2)c1 [Example 197, N-(3-((4S,6S)-2-amino-4-methyl-6-(trifluoromethyl)-5,6-dihydro-4H-1,3-oxazin-4-yl)-4,5-difluorophenyl)-3-methyl-5-(2,2,2-trifluoroethoxy)pyrazine-2-carboxamide] | 
15 nM | 58 nM |  |  | C[C@@]1(c2cc(NC(=O)c3ncc(C(F)F)cc3Cl)cc(F)c2F)C[C@@H](C(F)(F)F)OC(N)=N1 [Example 198, N-(3-((4S,6S)-2-amino-4-methyl-6-(trifluoromethyl)-5,6-dihydro-4H-1,3-oxazin-4-yl)-4,5-difluorophenyl)-3-chloro-5-(difluoromethyl)picolinamide] | 
14 nM | 40 nM |  |  | C[C@@]1(c2cc(NC(=O)c3ccc(C(F)F)cn3)cc(F)c2F)C[C@@H](C(F)(F)F)OC(N)=N1 [Example 200, N-(3-((4S,6S)-2-amino-4-methyl-6-(trifluoromethyl)-5,6-dihydro-4H-1,3-oxazin-4-yl)-4,5-difluorophenyl)-5-(difluoromethyl)picolinamide] | 
15 nM | 45 nM |  |  | COc1ccc(C(=O)Nc2cc(F)c(F)c([C@]3(C)C[C@@H](C(F)(F)F)OC(N)=N3)c2)nc1 [Example 201, N-(3-((4S,6S)-2-amino-4-methyl-6-(trifluoromethyl)-5,6-dihydro-4H-1,3-oxazin-4-yl)-4,5-difluorophenyl)-5-methoxypicolinamide] | 
35 nM | 61 nM |  |  | COc1cnc(C(=O)Nc2cc(F)c(F)c([C@]3(C)C[C@@H](C(F)(F)F)OC(N)=N3)c2)c(C)c1 [Example 202, N-(3-((4S,6S)-2-amino-4-methyl-6-(trifluoromethyl)-5,6-dihydro-4H-1,3-oxazin-4-yl)-4,5-difluorophenyl)-5-methoxy-3-methylpicolinamide] | 
20 nM | 11 nM |  |  | C[C@@]1(c2cc(NC(=O)c3ccc(Cl)cn3)cc(Cl)c2F)C[C@@H](C(F)(F)F)OC(N)=N1 [Example 207, N-(3-((4S,6S)-2-amino-4-methyl-6-(trifluoromethyl)-5,6-dihydro-4H-1,3-oxazin-4-yl)-5-chloro-4-fluorophenyl)-5-chloropicolinamide] | 
34 nM | 11 nM |  |  | Cc1cc(C#N)cnc1C(=O)Nc1cc(Cl)c(F)c([C@]2(C)C[C@@H](C(F)(F)F)OC(N)=N2)c1 [Example 210, N-(3-((4S,6S)-2-amino-4-methyl-6-(trifluoromethyl)-5,6-dihydro-4H-1,3-oxazin-4-yl)-5-chloro-4-fluorophenyl)-5-cyano-3-methylpicolinamide] | 
63 nM | 48 nM |  |  | COc1cnc(C(=O)Nc2cc(Cl)c(F)c([C@]3(C)C[C@@H](C(F)(F)F)OC(N)=N3)c2)c(C)n1 [Example 215, N-(3-((4S,6S)-2-amino-4-methyl-6-(trifluoromethyl)-5,6-dihydro-4H-1,3-oxazin-4-yl)-5-chloro-4-fluorophenyl)-5-methoxy-3-methylpyrazine-2-carboxamide] | 
35 nM | 94 nM |  |  | Cc1cc(C(F)F)cnc1C(=O)Nc1cc(C)c(F)c([C@]2(CF)C[C@@H](C(F)(F)F)OC(N)=N2)c1 [Example 216, N-(3-((4S,6S)-2-amino-4-(fluoromethyl)-6-(trifluoromethyl)-5,6-dihydro-4H-1,3-oxazin-4-yl)-4-fluoro-5-methylphenyl)-5-(difluoromethyl)-3-methylpicolinamide] | 
